Source: ChEMBL document CHEMBL5725801, “Fused heterocyclic compounds as CaM kinase inhibitors” (2018)

Test: CaMKII Cell-Based Activity: CaMKII activity in neonatal rat ventricular myocytes (NRVM) was measured by monitoring the phosphorylation level of phospholamban using high-content imaging. NRVMs were plated in a clear bottom 384-well plate in medium supplemented with 10% fetal bovine serum (FBS) and incubated at 37° C., 5% CO2 overnight. The medium was changed to a serum-free medium and compounds were dosed to the cells. The cells were incubated at 37° C., 5% CO2 for 4 hours and were then treated with 100 nM ATX-II (Alomone Labs) to activate CaMKII. 10 minutes after the addition of ATX-II, the cells were fixed with 4% formaldehyde followed by permeabilization with 0.1% triton X100. The fixed cells were stained with an anti-phospho-phospholamban primary antibody (Santa Cruz Biotechnology) and an Alexa488-labeled anti-rabbit IgG secondary antibody (Life Technologies Corporation) as well as Hoechst 33342 (Life Technologies Corporation). The cells were imaged using an ArrayScan VTI (Cellomics) and analyzed for cells containing a positive fluorescent signal at 485 nm, reported as % responder. The % responders were plotted against the compound concentration to determine the compounds EC50.

EC50: 226 nM
Compound: N[C@H]1CCC[C@H]1NC(=O)c1ccnc(-c2cnn3ccc(-c4ccccc4)nc23)c1
